{"source": "patent US9937179B2", "about": "“Combined treatment for cancer resistant to an epidermal growth factor receptor kinase inhibitor” (Pre Clinical Oncology Services Ltd., priority 2014, dated 2018)", "tested_on": "HCC827-ER1 (Erlotinib resistant variant of HCC827 NSCLC adenocarcinoma cell line)", "conditions": "HCC827-ER1, in vitro"}
{"compound": "COc1cc2ncnc(Nc3ccc(F)c(Cl)c3)c2cc1OCCCN1CCOCC1", "note": "[Gefitinib, N-(3-chloro-4-fluoro-phenyl)-7-methoxy-6-(3-morpholin-4-ylpropoxy)quinazolin-4-amine]", "values": [{"measurement": "cross-resistance of HCC827-ER1 with the alternate EGFR-TKI", "result": "cross-resistance"}]}
